The values that follow come from patent publication US20220118170A1, “SYSTEMS, APPARATUS, AND METHODS FOR ADMINISTERING A SUBSTANCE” (Massachusetts Institute of Technology, priority 2015, published 2022).

The conditions of the series: 20 kHz, 7.5 W/cm^2; sonicated vs unsonicated, P=0.48.

Take insulin aspart: the “Concentration of active insulin as a result of sonication” value was “No statistical difference”.
